Values of other authors as cited in patent US20150073330A1, “ALZHEIMER'S DISEASE TREATMENT WITH MULTIPLE THERAPEUTIC AGENTS DELIVERED TO THE OLFACTORY REGION THROUGH A SPECIAL DELIVERY CATHETER AND IONTOPHORESIS” (Wedge Therapeutics, LLC, priority 2012, published 2015).

Assays:
[1] = system: patients with Alzheimer's; conditions: cited from earlier work
[2] = in vivo; cited from earlier work

Substance: Bapineuzumab: humanized monoclonal antibody that seeks to clear brain cells of amyloid plaque
- MRI finding at the highest dose ([1]; patients receiving 2 mg): swelling of the brain tissue due to fluid accumulation (vasogenic edema)
- mental decline, Phase II trial ([1]; patients who lacked a genetic marker): slowed the mental decline
- health risks at lower doses ([1]; subjects receiving either 0.5 or 1 mg): No health risks found
- crossing of the blood brain barrier [2]: crosses the blood brain barrier
